Literature values in US11311637B2, “Positron emitting radionuclide labeled peptides for human uPAR PET imaging” (CURASIGHT A/S, priority 2012, dated 2022).

Conditions: mouse, in vivo

bone uptake: 2.49 % ID/g
Substance: 18F-FDG
